# According to PubChem BioAssay AID861 (The Scripps Research Institute Molecular Screening Center, 2007):
# Amino acid sequences for entries named in this document (tags omitted).
# UniProt O00206, whole entry: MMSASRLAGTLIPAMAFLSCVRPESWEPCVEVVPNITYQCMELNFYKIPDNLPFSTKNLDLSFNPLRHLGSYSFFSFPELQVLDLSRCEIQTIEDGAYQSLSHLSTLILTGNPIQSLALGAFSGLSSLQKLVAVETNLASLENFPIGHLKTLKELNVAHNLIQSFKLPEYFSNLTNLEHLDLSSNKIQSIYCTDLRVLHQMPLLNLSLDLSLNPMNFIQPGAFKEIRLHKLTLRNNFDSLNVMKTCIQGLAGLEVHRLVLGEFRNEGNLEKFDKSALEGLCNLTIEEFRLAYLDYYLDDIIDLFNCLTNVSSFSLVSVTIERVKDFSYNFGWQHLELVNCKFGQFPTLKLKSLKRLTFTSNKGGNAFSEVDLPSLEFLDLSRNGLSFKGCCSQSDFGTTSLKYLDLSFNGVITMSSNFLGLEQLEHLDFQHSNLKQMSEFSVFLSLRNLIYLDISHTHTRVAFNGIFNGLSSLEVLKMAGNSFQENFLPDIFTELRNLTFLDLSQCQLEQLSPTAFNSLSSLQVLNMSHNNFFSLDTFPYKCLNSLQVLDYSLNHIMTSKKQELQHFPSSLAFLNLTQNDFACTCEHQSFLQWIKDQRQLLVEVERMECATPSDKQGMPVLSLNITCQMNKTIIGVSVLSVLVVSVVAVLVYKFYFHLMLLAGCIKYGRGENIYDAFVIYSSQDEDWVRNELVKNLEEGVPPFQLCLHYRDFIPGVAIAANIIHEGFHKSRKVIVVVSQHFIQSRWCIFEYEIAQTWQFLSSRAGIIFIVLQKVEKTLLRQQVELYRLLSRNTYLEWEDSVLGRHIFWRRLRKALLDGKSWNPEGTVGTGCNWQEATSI
# The list shows a part of the results, in another mix than the full data. Activity calls are given as the source filed them. Rule as the data show it: active = inhibition above about 25%; inactive = the rest.
# Target: Toll-like receptor 4 (Homo sapiens) + Myeloid differentiation primary response protein MyD88 (Homo sapiens) (UniProt O00206+Q99836)
# Assay: disruptors of TLR4 binding to MyD88 – cell-based, HeLa CL3-4, BLA complementation, FRET ratio, primary screen (AID 861);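 also: 0% = vehicle and 100% = reference inhibitor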
# Details: HeLa CL3-4 TLR4/MyD88 BLA complementation, at 8.4 µM, active compounds read high
row,SMILES,inhibition
1,CCOc1ncccc1C(=O)NCC1(N2CCOCC2)CCCCC1,inactive: 0.51%
2,CC(C)(C)OC(=O)N1CCC(Nc2ccccc2)CC1,inactive: -17.1%
3,COc1cc(OC)cc(C(=O)NCC2(N3CCOCC3)CCCCC2)c1,inactive: -2.18%
4,CCC(CO)(C(=O)OC1CN2CCC1CC2)c1ccccc1 (stereo not given),inactive: 2.45%
5,CCN1CCC(Nc2cccc(F)c2)CC1,inactive: -7.4%
6,CN(C)c1ccc(C(=O)NCC2(N3CCCCC3)CCCCC2)cc1,inactive: -8.56%
7,N#Cc1ccc(C(=O)NCC2(N3CCCCC3)CCCCC2)cc1,inactive: 1.45%
8,c1ccc(CN2CCC(Nc3ccccc3)CC2)cc1,inactive: 5.21%
9,COc1ccc(C(=O)NCC2(N3CCOCC3)CCCCC2)cc1OC,inactive: 11.2%
10,N/C(=N\O)c1c(N)no[n+]1[O-],inactive: 4.38%
11,O=C(OC1CN2CCC1CC2)C1c2ccccc2C=Cc2ccccc21 (stereo not given),inactive: 3.4%
12,CC(C)c1ccc(NC2CCN(C(=O)OC(C)(C)C)CC2)cc1,inactive: 3.02%
13,CN(C)c1cccc(C(=O)NCC2(N3CCCCC3)CCCCC2)c1,inactive: 4.21%
14,COc1ccc(CN(CCCl)CCCl)cc1Cl,inactive: 0.55%
15,CN1CCC(Nc2cccc(F)c2)CC1,inactive: 6.33%
16,N#CC1(Nc2ccccc2)CCN(CCc2ccccc2)CC1,inactive: 2.98%
17,O=C(NCC1(N2CCCCC2)CCCCC1)c1cccc([N+](=O)[O-])c1,inactive: -20.9%
18,O=C(NCC1(N2CCOCC2)CCCCC1)c1cc(=O)[nH]c2ccccc12,inactive: -10.5%
19,COc1ccc(NC2CCN(C(=O)OC(C)(C)C)CC2)cc1,inactive: 2.52%
20,CN1CCN(CCOC(=O)C(O)(c2ccccc2)c2ccccc2)CC1,inactive: 2.12%
21,COc1ccc(NC2CCN(CCc3ccccc3)CC2)c(OC)c1,inactive: -2.1%
22,COc1ccc(C(=O)NCC2(N3CCCCC3)CCCCC2)c(OC)c1OC,inactive: -3.71%
23,O=C(NCC1(N2CCOCC2)CCCCC1)c1cc2ccccc2o1,inactive: 1.74%
24,O=C(OC1CN2CCC1CC2)C1c2ccccc2Oc2ccccc21 (stereo not given),inactive: 10.5%
25,CCOC(=O)N1CCC(Nc2ccc(OC)cc2)CC1,inactive: -4.75%
